The data set in a line: experimental determination of log Pm/w using HMLC. Format: physicochemical.

For the substance “(RS)-4,5,6,7-tetrahydro-N-6-propyl-2,6-benzothiazolediamine dihydrochloride monohydrate [PRM]”, the “log P (experimental log Pm/w) pH 3” value (pH 3, 40°C) was 1.985. Under “pH 4, 40°C”, the “log P (experimental log Pm/w) pH 4” value stood at 2.109. For the same substance, the “log P (experimental log Pm/w) pH 5” value (pH 5, 40°C) was 2.228. Besides, the “experimental log P” value (pH 6) is given as 2.323. Besides, where the note is “pH 6, 40°C”, the “log P (experimental log Pm/w) pH 6” value was 2.323.

Source of the values: article PMC8150020, “Studying the suitability of hybrid micelle liquid chromatography for estimating the lipophilicity of some partial dopamine agonists used to attain the reward circuit” (Royal Society Open Science, 2021).
